# Apparent affinities of Ab-14 variants for a coronavirus HR2 peptide

Target peptide (SARS-CoV-2 spike, HR2 region): PDVDLGDISGINAS

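Variants in AAYL50 differ from the parent at up to three CDR positions; double and triple changes were sampled at random. The assay is AlphaSeq: two haploid yeast populations carry antibody and antigen on their surface. Mating (16 h, 30 °C) was followed by selection of diploids and sequencing of their barcodes. A regression on co-assayed BCL2-family reference pairs converts the normalised counts of each replicate to an apparent Kd. There are three technical replicates.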

Parent: Ab-14, a human scFv built as VH, three GGGGS repeats, VL. Only the CDRs of the light chain vary.
VH: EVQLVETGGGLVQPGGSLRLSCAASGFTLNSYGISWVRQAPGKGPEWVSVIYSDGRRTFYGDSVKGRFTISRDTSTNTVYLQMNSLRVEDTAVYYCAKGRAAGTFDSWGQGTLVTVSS
VL: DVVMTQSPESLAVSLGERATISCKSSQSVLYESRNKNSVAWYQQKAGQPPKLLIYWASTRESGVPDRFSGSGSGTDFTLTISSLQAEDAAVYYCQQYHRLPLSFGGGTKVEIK

Variants are written as CDR1, CDR2 and CDR3 of the light chain (limits as in the source). Parent: KSSQSVLYESRNKNSVA, WASTRES, QQYHRLPLS.
All variants listed here change S33 of the VL, counted from its first residue.
Numbers give log10(Kd / nM), so 0 is 1 nM and 3 is 1 µM. Smaller is tighter.
Replicates are averaged; those with no signal do not enter the mean.
"nd" means that the variant was in the library but no mating with the target was seen in any replicate; the authors take this as a sign of poor binding, and no number exists.
Order: sorted from the lowest average up, undetected variants last.
Empty control strains, which show no peptide, gave a signal in 18% of pairings with library AAYL50; the median was 4.19 and 95% of these signals were weaker than 2.99. No background was subtracted.

Variant KHSESVLYEDRNKNSVA | WASTRES | QQYHRLPLS gave 0.70 (3 of 3 replicates). For KSSQSVLYELREKNSVA | WASMRES | QQYHRLPLS, the assay gave 0.71 (3 of 3 replicates). For KSSQSVLYEQRNCNSVA | WASTREN | QQYHRLPLS, the assay gave 0.80 (3 of 3 replicates). Variant KSSQTVLYEGRKKNSVA | WASTRES | QQYHRLPLS gave 0.91 (3 of 3 replicates). Variant KSSQSVLYEPRCKNSVA | WASTRES | QQCHRLPLS gave 0.91 (3 of 3 replicates). Variant KSSQSVCYEQRNKNSVA | WASTRES | QQYQRLPLS gave 0.93 (3 of 3 replicates). Variant KSSQSVLYEHRNKNSVA | WASTRES | QDYHQLPLS gave 1.00 (3 of 3 replicates). For KSSQSVLYETYNKNSVA | WASTRES | QQYHNLPLS, the assay gave 1.04 (3 of 3 replicates).

With KSEQSVLYENRNKNSVA | WASTRES | QQYNRLPLS the result was 1.19 (3 of 3 replicates). For KSSQSVLYEARNKNSIA | WASTRFS | QQYHRLPLS, the assay gave 1.20 (3 of 3 replicates). For KSSQSVLEERRNKNSVA | WASTRES | QQYIRLPLS, the assay gave 1.37 (3 of 3 replicates). Variant KSSQSVLYEKRNKNSVA | WASTRES | WQYHSLPLS showed 1.47 (3 of 3 replicates). Variant KSTQSVLYEQRNKNYVA | WASTRES | QQYHRLPLS showed 1.59 (1 of 3 replicates). Variant KSPQSWLYEFRNKNSVA | WASTRES | QQYHRLPLS showed 1.59 (3 of 3 replicates). Variant KSDCSVLYEARNKNSVA | WASTRES | QQYHRLPLS showed 1.61 (3 of 3 replicates). For KSSQMVLYENRNKNSVA | WASTRES | QQSHRLPLS, the assay gave 1.74 (3 of 3 replicates).

Variant KSSQSVLYENRNKLSVA | WASTRES | QQYHRLPLS gave 1.79 (3 of 3 replicates). Variant KSSQSVLYKMRNKNSVA | WASTRES | QQYHLLPLS gave 2.17 (2 of 3 replicates). For KSAQSVLYEERNKNSVA | WAITRES | QQYHRLPLS, the assay gave 2.59 (3 of 3 replicates). With KSSQSVLYFWRNKNSVA | WASTRES | QAYHRLPLS the result was 2.63 (2 of 3 replicates). Variant KSSQSVLYECRNDNSVA | WASTRES | QQYHRLPLM gave 2.66 (3 of 3 replicates). For KSSQSVLYEQRNKNSVH | WAETRES | QQYHRLPLS, the assay gave 3.08 (1 of 3 replicates). Variant KSSQSVLYECRNKNPVA | WASTRES | QQYHRPPLS showed 3.13 (1 of 3 replicates). Variant KSSQSVLYELRNKNSVG | WASTIES | QQYHRLPLS gave 3.38 (1 of 3 replicates).

Variant KSSQSVLYENRNLNSVA | WASTWES | QQYHRLPLS gave 3.56 (1 of 3 replicates). With KSSQSVLYEHRNKNHVA | WASTRIS | QQYHRLPLS the result was 3.59 (3 of 3 replicates). Variant KDSQSVLYEHRNKNSVA | WASTRES | QWYHRLPLS gave 3.61 (2 of 3 replicates). For KSSQSVYYETRNKNSVA | WLSTRES | QQYHRLPLS, the assay gave 3.66 (3 of 3 replicates). With KSLQSVLYETRNKNSVA | WASTRES | QRYHRLPLS the result was 3.98 (1 of 3 replicates). For KSSQSVLYEWRNKNSVA | WASTRYR | QQYHRLPLS, the assay gave 4.01 (2 of 3 replicates). For KPSQSVLYEIRNKNSVA | WASTRES | QQRHRLPLS, the assay gave 4.10 (1 of 3 replicates). Variant KSSLSVLYEHRNVNSVA | WASTRES | QQYHRLPLS showed 4.13 (3 of 3 replicates).

With PSSQSVLYEERNKNDVA | WASTRES | QQYHRLPLS the result was 4.13 (2 of 3 replicates). Variant KSAQSVLYETRNKNSVA | WASTQES | QQYHRLPLS gave 4.27 (1 of 3 replicates). For KSSNMVLYELRNKNSVA | WASTRES | QQYHRLPLS, the assay gave 4.29 (2 of 3 replicates). Variant KSSQSVLYEHRNKNSVA | NASTRES | QQHHRLPLS showed 4.37 (1 of 3 replicates). For KSSQSVLYMYRNKNSVA | WASTREG | QQYHRLPLS, the assay gave 4.89 (2 of 3 replicates). Variant KSSQSVLYECRNKNSMA | WASTRES | QQYHRCPLS showed 5.22 (1 of 3 replicates). Variant KSSQSVLYSYRNKNSVA | WASTRES | QQYHRGPLS gave 5.28 (1 of 3 replicates). For KSSQSVLYEVRNKNVVA | WASTREC | QQYHRLPLS, the assay gave 5.35 (2 of 3 replicates).

Variant KSSQSVLYETRNKLSVA | WASTRES | QQYHWLPLS showed 5.65 (1 of 3 replicates). Variant KSSQSVLYEVRNKNSVP | WASTRES | QAYHRLPLS showed nd (0 of 3 replicates). Variant KSSQSVLYEMRNKNSVR | WASTRES | QQYHPLPLS gave nd (0 of 3 replicates). For KSSQSVLYEFRNINSVA | WCSTRES | QQYHRLPLS, the assay gave nd (0 of 3 replicates). Variant KSSQSVLYEWRNKNSVA | FASTRES | QQYHRLPPS showed nd (0 of 3 replicates). Variant KSSQHVLYERRNKNMVA | WASTRES | QQYHRLPLS gave nd (0 of 3 replicates). For KSSQSVLYENRNKNSVA | WASTRES | KQHHRLPLS, the assay gave nd (0 of 3 replicates). For KSSQSVLYEHRLKNSVA | WASTRES | QQYLRLPLS, the assay gave nd (0 of 3 replicates).

For KSSQSVLYELRNKNSVA | WALTRES | QQYHRLPHS, the assay gave nd (0 of 3 replicates). Variant KSSQSVLYEQRNKNSVA | WASTREY | QQSHRLPLS showed nd (0 of 3 replicates). For KSSQSVLYRARNKNSVA | WASTRES | QQYHRLPLS, the assay gave nd (0 of 3 replicates).

The opening 5 entries, copied out:

For KHSESVLYEDRNKNSVA | WASTRES | QQYHRLPLS, the assay gave 0.70 (3 of 3 replicates).
For KSSQSVLYELREKNSVA | WASMRES | QQYHRLPLS, the assay gave 0.71 (3 of 3 replicates).
For KSSQSVLYEQRNCNSVA | WASTREN | QQYHRLPLS, the assay gave 0.80 (3 of 3 replicates).
For KSSQTVLYEGRKKNSVA | WASTRES | QQYHRLPLS, the assay gave 0.91 (3 of 3 replicates).
For KSSQSVLYEPRCKNSVA | WASTRES | QQCHRLPLS, the assay gave 0.91 (3 of 3 replicates).

For reference, the parent read 0.65 as the reference entry and 1.68 as a member of this library.

Reference: Engelhart et al. 2022, doi:10.1038/s41597-022-01779-4. File: FLAb, binding data.